# According to PubChem BioAssay AID504692 (The Scripps Research Institute Molecular Screening Center, 2011):
# The chains behind the UniProt entries cited, without tags or fusion partners.
# UniProt P47898, whole entry, looked up: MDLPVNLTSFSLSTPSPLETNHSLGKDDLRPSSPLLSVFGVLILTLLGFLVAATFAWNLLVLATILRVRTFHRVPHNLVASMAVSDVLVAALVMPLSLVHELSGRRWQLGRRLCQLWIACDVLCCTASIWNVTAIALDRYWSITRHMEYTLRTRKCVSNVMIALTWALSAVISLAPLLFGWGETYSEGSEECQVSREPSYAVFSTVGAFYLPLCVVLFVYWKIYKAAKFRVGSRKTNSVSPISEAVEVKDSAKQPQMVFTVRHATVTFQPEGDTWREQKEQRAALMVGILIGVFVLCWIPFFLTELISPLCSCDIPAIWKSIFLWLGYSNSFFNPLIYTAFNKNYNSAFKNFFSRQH
# The list shows a part of the results, in another mix than the full data. Active and inactive are the calls of the source. No stated cut-off is given here; in the data, active means activation mostly above about 9.5% (no sharp cut-off); inactive means mostly below about 7.6%.
# Target: 5-hydroxytryptamine receptor 5A (Homo sapiens) (UniProt P47898)
# Assay: activation of human 5-HT5A receptor – cell-based, luminescence, full-deck HTS, counter-screen for OPRM1-OPRD1 heterodimer agonist project, primary screen (AID 504692);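 further: 0% = cells with vehicle only and 100% = reference agonist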
# Settings: HTR5A agonist assay, at 9.3 µM, active compounds read high
row,Structure (SMILES),activation
1,CN1C(=O)C2(Nc3ccccc3-c3nc4ccccc4n32)c2ccccc21 (stereo unspecified),inactive: -6.97%
2,Cc1ccc2c(c1)C1CN(C)CCC1N2C(=O)Cc1cccs1 (stereo unspecified),inactive: 13.2%
3,Cc1ccc2c(c1)[C@@H]1CN(C)CC[C@@H]1N2C(=O)Nc1cccc(C(F)(F)F)c1,inactive: -2.86%
4,Cc1ccc(-c2csc(NC(=O)Cn3cnc4c3c(=O)n(C)c(=O)n4C)n2)cc1C,inactive: 3.49%
5,CCOC(=O)c1ccccc1NC(=O)CSc1nc2ccccc2n1CC(=O)N1CCCC1,inactive: 7.49%
6,COc1ccc(N2C(=O)CC(n3cnc4ccccc43)C2=O)cc1 (stereo unspecified),inactive: 1.7%
7,COc1ccccc1NC(=O)Cn1cnc2c1c(=O)n(C)c(=O)n2C,inactive: 2.89%
8,CCN1C(=O)C2(Nc3ccccc3-c3nc4ccccc4n32)c2cc(OC)ccc21 (stereo unspecified),inactive: 0.9%
9,CC1CC(C)CN(C(=O)Cn2c(SCC(=O)N3CCc4ccccc4C3)nc3ccccc32)C1 (stereo unspecified),inactive: -3.03%
10,CCC(C)N(CC(C)C)C(=S)SC(NC(C)=O)C(Cl)(Cl)Cl (stereo unspecified),inactive: -1.35%
11,CCc1ccc(NC(=O)Cn2c(SC)nc3ccccc32)cc1,inactive: -1.34%
12,O=C(Cn1cnc2c(NC(=O)OCc3ccccc3)ncnc21)NCc1ccccn1,inactive: -3.59%
13,Cc1nc2ccccc2n1CC(=O)NN,inactive: 1.2%
14,Cc1ccc(NC(=O)CCC(=O)N/N=C/C=C/c2ccccc2)cc1,inactive: 0.9%
15,Cc1nc2ccccc2n1CC(=O)N/N=C\c1ccccn1,inactive: 4.46%
16,CC(C)NC(=O)Cn1c(SCC(=O)N2CCCc3ccccc32)nc2ccccc21,inactive: -0.23%
17,O=C(c1ccccc1)N1CCn2c(nc3ccccc32)C1,inactive: 6.18%
18,CCc1cccc(C)c1N(C(=O)Cn1c(COC)nc2ccccc21)C(C)COC (stereo unspecified),inactive: -5.68%
19,CCc1ccc(S(=O)(=O)N2c3ccc(C)cc3C3CN(C)CCC32)cc1 (stereo unspecified),inactive: -6.02%

row,Structure (SMILES),activation
1,O=[N+]([O-])c1ccc2c(c1)nc1n2CCN(c2ccccc2)C1,inactive: -0.07%
2,N=c1n(CCN2CCCC2)c2ccccc2n1CC(O)c1ccc(Cl)c(Cl)c1 (stereo unspecified),inactive: 0.94%
3,CC(C)NC(=O)Cn1c(SCC(=O)NC2CCCC2)nc2ccccc21,inactive: 4.52%
4,O=C(Cn1cnc2c(NC(=O)OCc3ccccc3)ncnc21)NCCN1CCOCC1,inactive: 2.52%
5,CC(C)[C@H](NC(=O)N1CCn2c1nc1ccccc12)C(=O)NC1CC1,inactive: 1.08%
6,COc1cccc(NC(=O)[C@H](CC(C)C)NC(=O)N2CCn3c2nc2ccccc23)c1,inactive: -2.66%
7,COc1ccc2c(c1)C1(Nc3ccccc3-c3nc4ccccc4n31)C(=O)N2C (stereo unspecified),inactive: 2.78%
8,C=CCn1c(=O)c2c(nc3n2CCN3c2cccc(Cl)c2C)n(C)c1=O,inactive: 0.69%
9,COP1(=S)c2c(C)nn(CCC#N)c2N=C(c2ccc(F)cc2)N1C (stereo unspecified),inactive: -2.14%
10,CN(C)CCn1c(NCc2ccc3c(c2)OCO3)nc2ccccc21,inactive: 5.45%
11,COC(=O)C[C@H](NC(=O)Cn1cnc2c(NCc3ccccc3)ncnc21)C(=O)OC,inactive: 0.75%
12,Cc1ccc(C)c(S(=O)(=O)N2CCN(C(=O)Cn3cnc4c3c(=O)n(C)c(=O)n4C)CC2)c1,inactive: 1.22%
13,O=C(C1CCN(S(=O)(=O)c2cccc3nsnc23)CC1)N1CCn2c1nc1ccccc12,inactive: -27.4%
14,N=c1n(CCN2CCCCC2)c2ccccc2n1CC(=O)c1cccs1,inactive: 3.44%
15,CSc1nc(N)nc2c1ncn2CC(=O)Nc1ccc(C)c(C)c1,inactive: 2.99%
16,O=C(Cn1cnc2c(OCc3ccccc3)ncnc21)N1CCN(c2ccccn2)CC1,inactive: 2.65%
17,O=C(Nc1ccccc1C(F)(F)F)N1CCC(n2c(=O)[nH]c3ccccc32)CC1,inactive: 8.03%
18,N#CCC(=O)N/N=C\c1cccc(OC/C=C/c2ccccc2)c1,inactive: 4.54%
19,CC(C)[C@H](NC(=O)N1CCn2c1nc1ccccc12)C(=O)N[C@H](Cc1ccccc1)C(=O)O,inactive: 4.25%

row,Structure (SMILES),activation
1,COC(=O)c1cccc(NC(=O)Cn2cnc3c2c(=O)n(C)c(=O)n3C)c1,inactive: -3.14%
2,O=C(Cn1cnc2ccccc21)Nc1ccc(F)c(F)c1,inactive: 4.05%
3,O=C(COc1ccccc1)OC1CN2CCC1CC2 (stereo unspecified),inactive: -2.07%
4,Cc1ccc2c(c1)C1CN(C)CCC1N2S(=O)(=O)c1cccc(C(F)(F)F)c1 (stereo unspecified),inactive: 5.03%
5,O=C(Nc1ccncc1[N+](=O)[O-])c1ccc([N+](=O)[O-])cc1[N+](=O)[O-],inactive: -1.37%
6,CCOCN(C(=O)Cn1cnc2ccccc21)c1c(C)cccc1CC,inactive: -2.25%
7,Cc1nc2cc(C(F)(F)F)ccc2n1CCNc1nc(-c2ccc(F)cc2)cs1,inactive: 2.27%
8,c1ccc(Cn2c(CNc3nc4ccccc4n3CCN3CCOCC3)nc3ccccc32)cc1,inactive: 0.19%
9,CCC(C(=O)NC1CCCCC1)n1c(SCc2cccc(C)c2)nc2ccncc21 (stereo unspecified),inactive: 2.39%
10,O=C(C1CCCN(S(=O)(=O)c2cccnc2)C1)N1CCn2c1nc1ccccc12 (stereo unspecified),inactive: 4.57%
11,COc1ccc(CNC(=O)Cn2cnc3c(NCc4ccccc4)ncnc32)cc1,inactive: -1.51%
12,CC(NC(=O)Cn1cnc2c1c(=O)n(C)c(=O)n2C)c1ccccc1 (stereo unspecified),inactive: 5.38%
13,O=C(Cn1cnc2ccccc21)Nc1ccc(SC(F)F)cc1,inactive: 2.02%
14,COc1ccc(N/C(=N/P(=O)(N2CCOCC2)N2CCOCC2)N2CCOCC2)cc1,inactive: 0.78%
15,CN(C)C(=O)Cn1c(SCC(=O)NCc2ccc3c(c2)OCO3)nc2ccccc21,inactive: -1.37%
16,CCN(CC)S(=O)(=O)c1ccc(OC)c(NC(=O)Cn2cnc3c2c(=O)n(C)c(=O)n3C)c1,inactive: 0.6%
17,Cn1c(=O)c2ncn(CC(=O)Nc3cccc(-c4nc5ccccc5s4)c3)c2n(C)c1=O,inactive: 0.08%
18,O=C(Cn1cnc2c(OCc3ccccc3)ncnc21)NCc1ccccn1,inactive: -1.28%
